US20230293639A1, “SYSTEMS, DEVICES, COMPOSITIONS, AND METHODS FOR TREATING DIABETES” (Abvance Therapeutics, Inc., priority 2020, published 2023)

How the values were obtained:
[1] = not given; remark: listed apart in the source

Substance: insulin
- solubility (5 mM glutamic acid with 1% glycine, 0.5% sucrose, 0.005% Tween 20, pH 4.4): less than 3 mg/mL
- solubility (10 mM glutamate buffer with 1% CHAPS, pH 4.4): greater than 4 mg/mL
- solubility (10 mM glutamate buffer with 5% nicotinamide, pH 5.1): less than 3 mg/mL
- solubility (10 mM glutamic acid with 0.67% CHAPS and 1.67% nicotinamide, pH 4.7): greater than 4 mg/mL
- solubility (10 mM glutamic acid with 1% CHAPS, pH 3.9): greater than 4 mg/mL
- solubility (10 mM glutamic acid with 1.67% nicotinamide, pH 4.5): less than 3 mg/mL
- solubility (10 mM glutamic acid with 5% nicotinamide, pH 4.9): less than 3 mg/mL
- solubility (20 mM glycine, pH 3.5): ≤ 3230 µg/mL
- solubility (30 mM glutamic acid, pH 3.3): 3500 µg/mL
- solubility (50 mM PBS pH 7.03, no excipient): less than 2.5 mg/mL
- solubility (50 mM PBS pH 8.03, no excipient): greater than 5 mg/mL
- solubility (50 mM glutamine with 6.75% HP-β-CD and 3% sucrose, pH 4): ≤ 3230 µg/mL
- solubility (50 mM glycine with 6.75% HP-β-CD and 3% sucrose, pH 4): ≤ 3230 µg/mL
- solubility (50 mM histidine with 1% CHAPS, pH 4): 3530 µg/mL
- solubility (AB with 50 mM glutamine, 50 mM arginine, pH 4.94): less than 1 mg/mL
- solubility (AB with 50 mM glutamine, 50 mM histidine, pH 4.93): less than 1 mg/mL
- solubility (AB with 1% CHAPS, pH 4.24): greater than 6 mg/mL
- solubility (AB with 5% nicotinamide, pH 4.70): greater than 4 mg/mL
- solubility (PBS with 50 mM cysteine, pH 7.4): less than 2 mg/mL
- solubility (PBS with 50 mM histidine, pH 7.69): greater than 6 mg/mL
- solubility (PBS with 1% CHAPS, pH 7.60): greater than 6 mg/mL
- solubility (PBS with 1% poloxamer 188, pH 7.7): less than 2 mg/mL
- solubility (PBS with 5% nicotinamide, pH 7.53): greater than 6 mg/mL
- solubility (PBS with 5% vitamin E TPGS, pH 7.32): less than 2 mg/mL
- solubility (PBS with 5% vitamin E TPGS, pH 7.8): less than 2 mg/mL
- solubility (PBS with 10% HP-β-CD, pH 7.42): less than 2 mg/mL
- solubility (PBS with 10% M-β-CD, pH 7.55): less than 2 mg/mL
- solubility (Tris buffer (TB) pH 8.03): greater than 5 mg/mL
- solubility (acetate buffer (AB) pH 3.65, no excipient): greater than 5 mg/mL
- solubility (acetate buffer (AB) pH 4.02, no excipient): greater than 5 mg/mL
- solubility (target solubility achieved) (aqueous buffer systems comprising less than 30% co-solvents): greater than 3.5 mg/mL
- solubility (citrate buffer (CB) pH 5.02): less than 3 mg/mL
- solubility (citrate buffer (CB) pH 6.01): less than 3 mg/mL
- solubility (each of the arginine and glycine solutions, FIG. 7): ≤ 3230 µg/mL
- solubility (phosphate buffer (PB) pH 6.04): less than 3 mg/mL
- solubility (phosphate buffer (PB) pH 7.03): less than 3 mg/mL
- solubility (phosphate buffer (PB) pH 8.03): greater than 5 mg/mL
- solubility (up to) (various acidic glutamate buffer solutions pH 3.5-5.1 with excipient, FIG. 5): ≤ 5000 µg/mL
- solubility (up to) (various aqueous solutions of glutamic acid, glycine or histidine with excipient, FIG. 6): ≤ 3500 µg/mL
- solubility (up to) (various solutions of arginine (pH 7.7) or glycine (pH 3.5-7.8) with excipient, FIG. 7): ≤ 3500 µg/mL
- solubility ([1]; 33.3% NMP and 66.7% of 50 mM glycine with 1% CHAPS): 2360 µg/mL
- solubility ([1]; 33.3% NMP, 33.3% of 2% CHAPS, and 33.4% of 30 mM glutamic acid): 3470 µg/mL
- solubility ([1]; DMSO (non-aqueous solvent)): greater than 8 mg/mL
- solubility ([1]; NMP (non-aqueous solvent)): greater than 8 mg/mL
- solubility ([1]; each of the acidic solvents comprising 0-33% HCl, 33-67% glutamic acid, 0-67% DMSO): greater than or equal to 2.67 mg/mL
- solubility ([1]; glycerol (non-aqueous solvent)): less than 2 mg/mL
- solubility ([1]; propylene glycol (non-aqueous solvent)): less than 2 mg/mL
- solubility (up to) ([1]; solvents comprising methanol, glycine pH 4, glutamic acid pH 3.3, NMP, CHAPS, FIG. 9): ≤ 3300 µg/mL

Like-named read-outs stand apart in the source and are kept apart here.
